Among the data in PubChem BioAssay AID602163 (The Scripps Research Institute Molecular Screening Center, 2012) are activation values, retold here.

Only a part is listed here, and it is no random draw. Active and inactive are the calls of the source. Rule as the data show it: active = activation above about 7.5%; inactive = the rest.

In the experiment the test system is Methionine sulfoxide reductase A (Bos taurus). The experiment can be described thus: activation of methionine sulfoxide reductase A – biochemical, absorbance, bovine, HTS, primary screen (AID 602163).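 Also: 0% = vehicle and 100% = reference activator.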 To be noted: purified bovine MsrA, absorbance read-out; at 10.6 µM; active compounds read high.
As to `CC1=C2N=C(C=C3N=C(C(C)=C4[N-][C@@](C)([C@@H]5N=C1[C@](C)(CCC(=O)NC[C@@H](C)OP(=O)([O-])O[C@H]1[C@@H](O)[C@@H](n6cnc7cc(C)c(C)cc76)O[C@@H]1CO)[C@H]5CC(N)=O)[C@@](C)(CC(N)=O)[C@@H]4CCC(N)=O)[C@@](C)(CC(N)=O)[C@@H]3CCC(N)=O)C(C)(C)[C@@H]2CCC(N)=O.[C-]#N.[Co+3]`, the activation is inactive: -4.37%.
